The values that follow are results of earlier work, collected in PubChem BioAssay AID493017 (Abbott Labs, 2011).

Each structure is given as a SMILES string. The list shows a part of the results. Active and inactive are the calls of the source. No rule for the calls is given here.

Common to all, as to assay: PubChem AID 493017
The target of data set [1] is KCNJ5. To be noted: WOMBAT literature affinities, multiple human targets; K(+) channel; gene KCNJ5; NCBI gene 3762.
The target of data set [2] is PTGS2. The conditions noted are these: WOMBAT literature affinities, multiple human targets; COX-2; gene PTGS2; NCBI gene 5743.
Data set [3] addresses DHFR. The conditions noted are these: WOMBAT literature affinities, multiple human targets, DHFR, gene DHFR, NCBI gene 1719.
For data set [4], the target named is SIGMAR1. The conditions noted are these: WOMBAT literature affinities, multiple human targets; sigma; gene SIGMAR1; NCBI gene 10280.
In data set [5] the target is FNTA. The conditions noted are these: WOMBAT literature affinities, multiple human targets; FTase; gene FNTA; NCBI gene 2339.
Data set [6] has as its target HRH3. To be noted: WOMBAT literature affinities, multiple human targets; binding affinity Ki; H3; gene HRH3; NCBI gene 11255.
Data set [7] concerns the target MMP13. The conditions noted are these: WOMBAT literature affinities, multiple human targets; MMP-13; gene MMP13; NCBI gene 4322.
Data set [8] addresses MMP1. To be noted: WOMBAT literature affinities, multiple human targets; MMP-1; gene MMP1; NCBI gene 4312.
Data set [9] concerns the target CNR1. To be noted: WOMBAT literature affinities, multiple human targets; binding affinity Ki; CB1; gene CNR1; NCBI gene 1268.
Data set [10] deals with GRM2. To be noted: WOMBAT literature affinities, multiple human targets; mGluR2; gene GRM2; NCBI gene 2912.
Data set [11] deals with EGFR. To be noted: WOMBAT literature affinities, multiple human targets; EGFR; gene EGFR; NCBI gene 1956.
Data set [12] deals with F10. To be noted: WOMBAT literature affinities, multiple human targets; binding affinity Ki; fXa; gene F10; NCBI gene 2159.
The target of data set [13] is GABRA1. The conditions noted are these: WOMBAT literature affinities, multiple human targets; GABA-A; gene GABRA1; NCBI gene 2554.
Data set [14] has as its target HTR1A. The conditions noted are these: WOMBAT literature affinities, multiple human targets; binding affinity Ki; 5-HT1A; gene HTR1A; NCBI gene 3350.
The target of data set [15] is PDGFRA. To be noted: WOMBAT literature affinities, multiple human targets; PDGFR; gene PDGFRA; NCBI gene 5156.
For data set [16], the target named is F2. To be noted: WOMBAT literature affinities, multiple human targets; binding affinity Ki; thrombin; gene F2; NCBI gene 2147.

On to `O=c1[nH]c2cc(C(F)(F)F)ccc2n1-c1cc(C(F)(F)F)ccc1O`, for which the IC50 in [1] is 6.31 µM. In the case of `CS(=O)(=O)c1ccc(C2=C(c3ccc(F)cc3)C(=O)OC2)cc1`, the IC50 in [2] was 0.6 µM. As for `CC1(C)N=C(N)N=C(N)N1c1cccc(OCC(=O)Nc2ccccc2)c1`, in data set [3], the IC50 was 0.141 µM. In the case of `CCCC(N)Cc1ccc(OC)c(OCCc2ccccc2)c1` (configuration not stated), the IC50 in data set [4] is 0.33 µM. For `CSCCC(NC(=O)C1CCC2CCCC(NC(=O)C(CS)NC(=O)OCC3c4ccccc4-c4ccccc43)C(=O)N21)C(=O)O` (configuration not stated), the IC50 in data set [5] is 7 µM. On to `O=S(=O)(Cc1ccccc1)NCCc1cnc[nH]1`, for which the Ki in data set [6] is 1.86 µM.

For the compound `O=S(=O)(c1ccc(Oc2ccccc2)cc1)C1CCCC(S)C1` (configuration not stated), the IC50 in [7] was 0.001 µM. In the case of `CCCOC1CCC(CS)(C(=O)NC(Cc2ccccc2)C(=O)NC)CC1` (configuration not stated), the half-inhibitory concentration (IC50) in data set [8] was 6.03 µM.

`CCCCCC=CCC=CCC=CCC=CCCCC(N)=O`: in data set [9], the Ki was 9.6 µM. For the compound `Cc1c(C(=O)c2ccccc2F)c2ccccc2n1C(C)CN1CCOCC1` (configuration not stated), in data set [9], the Ki was 0.891 µM.

In the case of `NC(C(=O)O)C1C(C(=O)O)C1c1ccccc1` (configuration not stated), the IC50 in data set [10] was 9.9 µM. Consider `COc1ccc(S(=O)(=O)N2CCCS(=O)(=O)C(C)(C)C2C(=O)NO)cc1` (configuration not stated), for which the IC50 in data set [8] was 0.0019 µM. Take `CC(C)OC1=C(c2ccc(S(C)(=O)=O)cc2)C(C)(C)OC1=O`: the IC50 in data set [2] is 0.3 µM.

Turning to `Clc1cccc(Nc2ncnc3ccccc23)c1`, the IC50 in data set [11] was 0.023 µM.

Take `CCCN(CCC)CCc1ccc(OC)c(OCCc2ccccc2)c1`: the IC50 in data set [4] is 0.0013 µM. Consider `CC1(C)OC(=O)C(OC2CC2)=C1c1ccc(S(C)(=O)=O)cc1`, for which the IC50 in data set [2] was 5.2 µM. As to `Cc1ccccc1N1C(N)=NC(N)=NC1(C)C`, the IC50 in [3] was 100 µM.

As to `COc1ccc(S(=O)(=O)N2CCCCC2C(=O)NO)cc1` (configuration not stated), in data set [8], the half-inhibitory concentration (IC50) was 0.023 µM. In the case of `COc1cc(O)c2c(=O)c(-c3cccc(Cl)c3)cn(CCc3ccccc3)c2c1`, in [11], the IC50 was 4 µM. For `Nc1cc2ccnc(N)c2cc1CN1CCC(NS(=O)(=O)c2cc3ncccc3s2)C1=O` (configuration not stated), in [12], the Ki was 6 µM. `COC1=C(c2ccc(S(C)(=O)=O)cc2)C(C)(C)OC1=O`: the half-maximal inhibitory concentration (IC50) in [2] is 33 µM. In the case of `Cn1c(Cl)c(Cl)c(-c2ccc(F)cc2)c1-c1ccc(S(C)(=O)=O)cc1`, in data set [2], the IC50 was 25.1 µM. On to `CCOC(=O)c1cc2c(cn1)C(=O)c1ccccc1-2`, for which the IC50 in data set [13] is 25.7 µM.

Consider `CCc1nccc2c1[nH]c1ccccc12`, for which the IC50 in data set [13] was 251 µM. Regarding `CC1(C)N=C(N)N=C(N)N1c1cccc(CCCCc2ccccc2)c1`, in data set [3], the IC50 was 0.00447 µM. As for `CC1(C)SCCCN(S(=O)(=O)c2ccc(Br)cc2)C1C(=O)NO` (configuration not stated), the IC50 in data set [8] was 0.0007 µM.

Take `CS(=O)(=O)c1ccc(-c2cc(C(F)(F)F)cnc2OCC2(O)CCCC2)cc1`: the IC50 in data set [2] is 1.4 µM.

For the compound `O=C1CC(=C(c2ccccc2)c2ccccc2)C(=O)N1CCCCN1CCN(c2ccccc2)CC1`, the Ki in [14] is 0.125 µM. On to `COc1ccc2c(c1)ncn2-c1ccccc1`, for which, in [15], the IC50 was 0.43 µM. For the compound `CC1(C)N=C(N)N=C(N)N1c1cccc(C(=O)Nc2ccc(S(=O)(=O)F)cc2)c1`, in data set [3], the IC50 is 1.1 µM. Turning to `CC1(C)OC(=O)C(Oc2ccccc2)=C1c1ccc(S(C)(=O)=O)cc1`, the IC50 in [2] is 0.02 µM. Regarding `Cn1c2ccccc2c2c1cnc1c3ccccc3n(C)c12`, the IC50 in [13] is 1.95 µM. On to `COc1ccc2ccc(S(=O)(=O)N(C)C3CCN(Cc4cccc(C(=N)N)c4)C3=O)cc2c1` (configuration not stated), for which the Ki in [16] is 1.05 µM. `COc1ccc(-c2ccccc2-c2ccc(S(C)(=O)=O)cc2)cc1Cl`: the IC50 in [2] was 10 µM. On to `CC1(C)N=C(N)N=C(N)N1c1cccc(OCC(=O)N2CCOCC2)c1`, for which the IC50 in data set [3] was 14.1 µM. As for `CC1(C)OC(=O)C(Nc2ccccc2)=C1c1ccc(S(C)(=O)=O)cc1`, the IC50 in [2] was 0.5 µM. Consider `CC1(C)N=C(N)N=C(N)N1c1ccc(C(=O)Nc2ccc(S(=O)(=O)F)cc2)cc1`, for which the IC50 in data set [3] is 20.9 µM. Take `CC1(C)N=C(N)N=C(N)N1c1ccc(-c2ccccc2)cc1`: in [3], the IC50 is 20 µM. For `COc1cccc(Cc2cnc(N)nc2N)c1`, the result in data set [3] was active. For the same compound, the Ki in data set [3] (binding affinity Ki) is 0.3 µM. Turning to `Cn1ccc(-c2ccc(F)cc2)c1-c1ccc(S(C)(=O)=O)cc1`, the IC50 in [2] was 20 µM.

As for `CC1(C)N=C(N)N=C(N)N1c1cc(Cl)ccc1Cl`, in data set [3], the IC50 is 372 µM.

The term IC50 denotes the point on the concentration scale where inhibition reaches its midpoint. As a reminder, the Ki is the equilibrium dissociation constant of an inhibitor or competing ligand from its target.
